# Measurements taken from patent publication US5059627A, “Nerve growth factor secretion inducing composition” (Takeda Chemical Industries, Ltd., priority 1989, dated 1991).
# Assay: in vivo
# Details: mouse, po
row,SMILES,LD50 [mg/kg]
1,"COC1=C(OC)C(=O)C(C)=CC1=O [2,3-Dimethoxy-5-methyl-1,4-benzoquinone, 2,3-dimethoxy-5-methyl-1,4-benzoquinone]",> 500
2,"COC1=C(OC)C(=O)C(CCCCCCCCCCO)=C(C)C1=O [6-(10-hydroxydecyl)-2,3-dimethoxy-5-methyl-1,4-benzoquinone]",> 1000
